According to the Human Domainome abundance scans (Beltran et al. 2025):
± gives the uncertainty stated by the source.

B1: Tyrosine-protein kinase ABL1, residues 64 to 120; numbered along this chain, P00519 (parent)
chain: NLFVALYDFVASGDNTLSITKGEKLRVLGYNHNGEWCEAQTKNGQGWVPSNYITPVN

Variants of: B1
Experiment: abundance fitness (aPCA) (normalised: wild type 0, dead -1); higher = more abundant; growth selection in yeast, the domain comes from the species named
Details: Homo sapiens

Q: Which abundance fitness does the source give for DLFVALYDFVASGDNTLSITKGEKLRVLGYNHNGEWCEAQTKNGQGWVPSNYITPVN here?
A: -0.174 ± 0.38

Q: With GLFVALYDFVASGDNTLSITKGEKLRVLGYNHNGEWCEAQTKNGQGWVPSNYITPVN as the variant, how does the abundance fitness read?
A: 0.307 ± 0.18

Q: Which abundance fitness does the source give for KLFVALYDFVASGDNTLSITKGEKLRVLGYNHNGEWCEAQTKNGQGWVPSNYITPVN here?
A: -0.234 ± 0.14

Q: For MLFVALYDFVASGDNTLSITKGEKLRVLGYNHNGEWCEAQTKNGQGWVPSNYITPVN, which abundance fitness is on record?
A: -0.541 ± 0.16

Q: With QLFVALYDFVASGDNTLSITKGEKLRVLGYNHNGEWCEAQTKNGQGWVPSNYITPVN as the variant, how does the abundance fitness read?
A: -0.205 ± 0.27

Q: Which abundance fitness does the source give for RLFVALYDFVASGDNTLSITKGEKLRVLGYNHNGEWCEAQTKNGQGWVPSNYITPVN here?
A: -0.138 ± 0.14

Q: With SLFVALYDFVASGDNTLSITKGEKLRVLGYNHNGEWCEAQTKNGQGWVPSNYITPVN as the variant, how does the abundance fitness read?
A: -0.63 ± 0.21

Q: With WLFVALYDFVASGDNTLSITKGEKLRVLGYNHNGEWCEAQTKNGQGWVPSNYITPVN as the variant, how does the abundance fitness read?
A: -0.581 ± 0.14

Q: For YLFVALYDFVASGDNTLSITKGEKLRVLGYNHNGEWCEAQTKNGQGWVPSNYITPVN, which abundance fitness is on record?
A: 0.467 ± 0.17

Q: Which abundance fitness does the source give for NAFVALYDFVASGDNTLSITKGEKLRVLGYNHNGEWCEAQTKNGQGWVPSNYITPVN here?
A: -0.603 ± 0.16

Q: For NCFVALYDFVASGDNTLSITKGEKLRVLGYNHNGEWCEAQTKNGQGWVPSNYITPVN, which abundance fitness is on record?
A: -0.063 ± 0.078

Q: With NDFVALYDFVASGDNTLSITKGEKLRVLGYNHNGEWCEAQTKNGQGWVPSNYITPVN as the variant, how does the abundance fitness read?
A: -0.117 ± 0.14

Q: Which abundance fitness does the source give for NEFVALYDFVASGDNTLSITKGEKLRVLGYNHNGEWCEAQTKNGQGWVPSNYITPVN here?
A: -0.241 ± 0.043

Q: With NFFVALYDFVASGDNTLSITKGEKLRVLGYNHNGEWCEAQTKNGQGWVPSNYITPVN as the variant, how does the abundance fitness read?
A: 0.226 ± 0.14

Q: For NGFVALYDFVASGDNTLSITKGEKLRVLGYNHNGEWCEAQTKNGQGWVPSNYITPVN, which abundance fitness is on record?
A: -0.352 ± 0.05

Q: With NHFVALYDFVASGDNTLSITKGEKLRVLGYNHNGEWCEAQTKNGQGWVPSNYITPVN as the variant, how does the abundance fitness read?
A: -0.513 ± 0.29

Q: For NIFVALYDFVASGDNTLSITKGEKLRVLGYNHNGEWCEAQTKNGQGWVPSNYITPVN, which abundance fitness is on record?
A: 0.291 ± 0.29

Q: For NKFVALYDFVASGDNTLSITKGEKLRVLGYNHNGEWCEAQTKNGQGWVPSNYITPVN, which abundance fitness is on record?
A: 0.251 ± 0.14

Q: With NMFVALYDFVASGDNTLSITKGEKLRVLGYNHNGEWCEAQTKNGQGWVPSNYITPVN as the variant, how does the abundance fitness read?
A: 0.128 ± 0.076

Q: Which abundance fitness does the source give for NNFVALYDFVASGDNTLSITKGEKLRVLGYNHNGEWCEAQTKNGQGWVPSNYITPVN here?
A: 0.348 ± 0.22

Q: Which abundance fitness does the source give for NPFVALYDFVASGDNTLSITKGEKLRVLGYNHNGEWCEAQTKNGQGWVPSNYITPVN here?
A: -0.522 ± 0.15

Q: Which abundance fitness does the source give for NQFVALYDFVASGDNTLSITKGEKLRVLGYNHNGEWCEAQTKNGQGWVPSNYITPVN here?
A: -0.153 ± 0.11

Q: Which abundance fitness does the source give for NRFVALYDFVASGDNTLSITKGEKLRVLGYNHNGEWCEAQTKNGQGWVPSNYITPVN here?
A: -0.037 ± 0.069

Q: With NSFVALYDFVASGDNTLSITKGEKLRVLGYNHNGEWCEAQTKNGQGWVPSNYITPVN as the variant, how does the abundance fitness read?
A: -0.198 ± 0.12

Q: Which abundance fitness does the source give for NTFVALYDFVASGDNTLSITKGEKLRVLGYNHNGEWCEAQTKNGQGWVPSNYITPVN here?
A: -0.079 ± 0.052

Q: With NVFVALYDFVASGDNTLSITKGEKLRVLGYNHNGEWCEAQTKNGQGWVPSNYITPVN as the variant, how does the abundance fitness read?
A: -0.486 ± 0.057

Q: Which abundance fitness does the source give for NWFVALYDFVASGDNTLSITKGEKLRVLGYNHNGEWCEAQTKNGQGWVPSNYITPVN here?
A: -0.029 ± 0.078

Q: Which abundance fitness does the source give for NYFVALYDFVASGDNTLSITKGEKLRVLGYNHNGEWCEAQTKNGQGWVPSNYITPVN here?
A: -0.258 ± 0.35

Q: Which abundance fitness does the source give for NLAVALYDFVASGDNTLSITKGEKLRVLGYNHNGEWCEAQTKNGQGWVPSNYITPVN here?
A: -0.296 ± 0.069

Q: Which abundance fitness does the source give for NLGVALYDFVASGDNTLSITKGEKLRVLGYNHNGEWCEAQTKNGQGWVPSNYITPVN here?
A: -0.341 ± 0.097

Q: With NLHVALYDFVASGDNTLSITKGEKLRVLGYNHNGEWCEAQTKNGQGWVPSNYITPVN as the variant, how does the abundance fitness read?
A: -0.289 ± 0.06

Q: With NLKVALYDFVASGDNTLSITKGEKLRVLGYNHNGEWCEAQTKNGQGWVPSNYITPVN as the variant, how does the abundance fitness read?
A: -0.224 ± 0.12

Q: With NLLVALYDFVASGDNTLSITKGEKLRVLGYNHNGEWCEAQTKNGQGWVPSNYITPVN as the variant, how does the abundance fitness read?
A: -0.787 ± 0.11

Q: Which abundance fitness does the source give for NLMVALYDFVASGDNTLSITKGEKLRVLGYNHNGEWCEAQTKNGQGWVPSNYITPVN here?
A: -0.342 ± 0.071

Q: For NLNVALYDFVASGDNTLSITKGEKLRVLGYNHNGEWCEAQTKNGQGWVPSNYITPVN, which abundance fitness is on record?
A: -0.286 ± 0.16

Q: Which abundance fitness does the source give for NLPVALYDFVASGDNTLSITKGEKLRVLGYNHNGEWCEAQTKNGQGWVPSNYITPVN here?
A: -1.14 ± 0.14

Q: For NLRVALYDFVASGDNTLSITKGEKLRVLGYNHNGEWCEAQTKNGQGWVPSNYITPVN, which abundance fitness is on record?
A: -0.287 ± 0.047

Q: Which abundance fitness does the source give for NLSVALYDFVASGDNTLSITKGEKLRVLGYNHNGEWCEAQTKNGQGWVPSNYITPVN here?
A: -0.299 ± 0.082

Q: For NLTVALYDFVASGDNTLSITKGEKLRVLGYNHNGEWCEAQTKNGQGWVPSNYITPVN, which abundance fitness is on record?
A: -0.404 ± 0.085

Q: Which abundance fitness does the source give for NLVVALYDFVASGDNTLSITKGEKLRVLGYNHNGEWCEAQTKNGQGWVPSNYITPVN here?
A: -0.206 ± 0.07

Q: For NLWVALYDFVASGDNTLSITKGEKLRVLGYNHNGEWCEAQTKNGQGWVPSNYITPVN, which abundance fitness is on record?
A: -0.191 ± 0.085

Q: For NLYVALYDFVASGDNTLSITKGEKLRVLGYNHNGEWCEAQTKNGQGWVPSNYITPVN, which abundance fitness is on record?
A: -0.492 ± 0.24

Q: With NLFAALYDFVASGDNTLSITKGEKLRVLGYNHNGEWCEAQTKNGQGWVPSNYITPVN as the variant, how does the abundance fitness read?
A: -0.178 ± 0.1

Q: With NLFCALYDFVASGDNTLSITKGEKLRVLGYNHNGEWCEAQTKNGQGWVPSNYITPVN as the variant, how does the abundance fitness read?
A: -0.271 ± 0.15

Q: For NLFDALYDFVASGDNTLSITKGEKLRVLGYNHNGEWCEAQTKNGQGWVPSNYITPVN, which abundance fitness is on record?
A: -0.407 ± 0.22

Q: With NLFEALYDFVASGDNTLSITKGEKLRVLGYNHNGEWCEAQTKNGQGWVPSNYITPVN as the variant, how does the abundance fitness read?
A: -0.034 ± 0.093
